The values that follow come from patent US20240383913A1, “THIOPHENE RING COMPOUND, PREPARATION METHOD THEREFOR AND APPLICATION THEREOF” (CENTER FOR EXCELLENCE IN MOLECULAR CELL SCIENCE, CHINESE …, priority 2021, published 2024).

The chains behind the UniProt entries cited, without tags or fusion partners.
UniProt P28223, whole entry: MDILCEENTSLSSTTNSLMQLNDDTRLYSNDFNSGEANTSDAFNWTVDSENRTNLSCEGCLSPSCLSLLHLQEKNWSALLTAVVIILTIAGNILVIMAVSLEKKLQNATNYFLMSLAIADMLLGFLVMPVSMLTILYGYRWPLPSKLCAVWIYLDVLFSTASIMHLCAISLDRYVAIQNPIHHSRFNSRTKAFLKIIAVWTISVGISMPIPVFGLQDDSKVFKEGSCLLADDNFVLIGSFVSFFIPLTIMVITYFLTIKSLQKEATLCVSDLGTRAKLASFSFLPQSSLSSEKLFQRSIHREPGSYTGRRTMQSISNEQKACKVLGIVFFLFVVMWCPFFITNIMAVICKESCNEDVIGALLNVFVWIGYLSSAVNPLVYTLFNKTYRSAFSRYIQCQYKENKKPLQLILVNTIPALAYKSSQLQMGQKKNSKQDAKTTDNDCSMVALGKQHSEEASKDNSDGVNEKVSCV

For assay [1], the target named is T1, 5-HT2A receptor (Homo sapiens (Human), UniProt P28223). As to the kind of experiment: Affinity for 5-HT2A receptors, radioligand competition with [3H]-ketanserin. The assay is classed as binding. Particulars: 293T membrane transiently expressing 5-HT2A. (In a radioligand displacement assay an active substance lowers the binding of a labelled ligand.)
Assay [2] concerns the target T1, 5-HT2A receptor. As to the kind of experiment: 5-HT2A receptor Gαq BRET (G protein trimer dissociation).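 Also: cells transfected with 5-HT2A receptor, Gαq-Rluc, Gβ3 and Gγ9-GFP, BRET read with coelenterazine 400a (5 µM) across a compound dilution series in duplicate.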 Type of assay: cell-based.
The target in assay [3] is T1, 5-HT2A receptor. As to the kind of experiment: 5-HT2A receptor β-arrestin2 BRET (recruitment).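 Also: cells co-expressing Rluc-tagged 5-HT2A receptor, GRK2 and GFP2-tagged β-arrestin2, read by BRET with coelenterazine 400a (5 µM) across graded drug concentrations in duplicate, signal reflecting β-arrestin2 membrane recruitment.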 Type of assay: cell-based. On the technique in general: Bioluminescence resonance energy transfer reports proximity on the nanometre scale.

What is called Ki is the equilibrium dissociation constant of an inhibitor or competing ligand from its target. Read a low Ki as a stronger hold on the target. One may read the EC50 as the midpoint of the concentration-response curve. Broadly, the Emax is the maximal effect, on the per cent scale that the assay sets. `c1cc2c3c(csc3c1)CC1CN(CC3CC3)CCN21` (centres unmarked) [Compound I-4, 8-(Cyclopropylmethyl)-6,6a,7,8,9,10-Hexahydropyrazino[1,2-a]Thieno [4,3,2-De]Quinoline] returned a Ki on 5-HT2A receptor [1] of 4410 nM. In addition, the EC50 at 5-HT2A receptor [2] was 1380 nM; at 5-HT2A receptor [3] (5-HT2A receptor, β-arrestin2 pathway, read-out: β-arrestin2 BRET EC50) it was 3940 nM. The maximum response (Emax) on 5-HT2A receptor [2] (read-out: Gαq BRET (Emax %)) came out at 50%; at 5-HT2A receptor [3] (5-HT2A receptor, β-arrestin2 pathway), 34.1%.

The compound `O=C(CN1CCN2c3cccc4scc(c34)CC2C1)c1ccc(F)cc1` (centres unmarked) [Compound I-10, 1-(4-Fluorophenyl)-2-(6a,7,9,10-Tetrahydropyrazino[1,2-a]Thieno [4,3,2-De]Quinolin-8 (6H)-Yl) Ethan-1-One] yielded a Ki at 5-HT2A receptor [1] of 1490 nM. Further, the EC50 at 5-HT2A receptor [2] was 14.2 nM; at 5-HT2A receptor [3], 394 nM.
